From patent publication US20240301023A1, “PEPTIDES AND USES THEREOF” (priority 2020, published 2024)

Protein sequences, listed by entry. Tags and fused reporters are not part of them. Lines headed by an entry give the natural chain unless they say otherwise; changes in a name come on top.
UniProt P41145: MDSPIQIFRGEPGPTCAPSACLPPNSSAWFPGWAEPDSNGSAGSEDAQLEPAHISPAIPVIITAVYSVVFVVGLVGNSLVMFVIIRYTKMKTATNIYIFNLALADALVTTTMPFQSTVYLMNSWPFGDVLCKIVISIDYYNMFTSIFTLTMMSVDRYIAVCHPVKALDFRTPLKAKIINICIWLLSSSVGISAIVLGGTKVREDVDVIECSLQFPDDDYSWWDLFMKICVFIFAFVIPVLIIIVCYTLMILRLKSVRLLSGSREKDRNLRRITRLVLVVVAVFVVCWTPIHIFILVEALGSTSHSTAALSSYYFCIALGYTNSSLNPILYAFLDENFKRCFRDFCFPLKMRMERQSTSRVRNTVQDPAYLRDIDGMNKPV
UniProt P35372: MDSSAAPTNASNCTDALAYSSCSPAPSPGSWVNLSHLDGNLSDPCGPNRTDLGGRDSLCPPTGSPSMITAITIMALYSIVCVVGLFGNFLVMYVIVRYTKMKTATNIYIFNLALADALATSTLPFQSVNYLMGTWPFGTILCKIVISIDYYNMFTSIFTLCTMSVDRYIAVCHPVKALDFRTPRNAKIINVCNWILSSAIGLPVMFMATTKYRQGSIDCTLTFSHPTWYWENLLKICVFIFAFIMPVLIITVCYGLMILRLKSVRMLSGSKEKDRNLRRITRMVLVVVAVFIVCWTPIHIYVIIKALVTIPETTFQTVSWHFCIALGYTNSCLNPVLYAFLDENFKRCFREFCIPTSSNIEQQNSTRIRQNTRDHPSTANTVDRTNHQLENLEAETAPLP
UniProt P41143: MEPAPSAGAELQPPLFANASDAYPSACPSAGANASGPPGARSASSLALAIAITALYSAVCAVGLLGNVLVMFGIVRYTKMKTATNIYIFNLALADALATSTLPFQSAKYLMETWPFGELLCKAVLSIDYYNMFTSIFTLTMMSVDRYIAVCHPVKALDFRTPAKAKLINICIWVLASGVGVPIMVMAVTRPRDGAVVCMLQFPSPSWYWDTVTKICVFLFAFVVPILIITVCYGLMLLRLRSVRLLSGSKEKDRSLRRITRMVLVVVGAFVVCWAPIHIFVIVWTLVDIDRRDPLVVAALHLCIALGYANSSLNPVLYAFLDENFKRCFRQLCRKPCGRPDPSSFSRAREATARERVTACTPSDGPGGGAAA

How the values were obtained:
[1] = biological target: Kappa opioid receptor (KOR) (Homo sapiens, UniProt P41145); assay: cAMP assay (ALPHAScreen cAMP kit) in HEK 293 cells overexpressing KOR; type: cell-based; details: forskolin-stimulated HEK 293 KOR cells; for cAMP assay KOR 1 μM: test compound 1 μM; for cAMP assay KOR 10 μM: test compound 10 μM
Mu opioid receptor (MOR) = Mu opioid receptor (MOR) (Homo sapiens, UniProt P35372); assay: cAMP assay (ALPHAScreen cAMP kit) in HEK 293 cells overexpressing MOR; type: cell-based; details: forskolin-stimulated HEK 293 MOR cells; for cAMP assay MOR 1 μM: test compound 1 μM; for cAMP assay MOR 10 μM: test compound 10 μM
[2] = biological target: Delta opioid receptor (DOR) (Homo sapiens, UniProt P41143); details: forskolin-stimulated HEK 293 DOR cells; for cAMP assay DOR 1 μM: test compound 1 μM; for cAMP assay DOR 10 μM: test compound 10 μM

| Substance | cAMP assay KOR 1 μM [1] | cAMP assay KOR 10 μM [1] | cAMP assay MOR 1 μM (Mu opioid receptor (MOR)) | cAMP assay MOR 10 μM (Mu opioid receptor (MOR)) | cAMP assay DOR 1 μM [2] | cAMP assay DOR 10 μM [2] |
| --- | --- | --- | --- | --- | --- | --- |
| NH2-Phe-Sar-(4-NO2)Phe-Leu-DArg-DArg-NH2 | 2.46 | 23.06 | −0.97 | −0.64 | −0.5 | 1.83 |
| NH2-Tyr-Gaba-Phe-Leu-Arg-Arg-NH2 | 4.23 | 22.91 | −6.78 | 7.28 | 2.57 | 19.55 |
| NH2-Tyr-Sar-(4-NO2)Phe-Leu-DLys-DArg-NH2 | 8.47 | 25.11 | −1.27 | 0.02 | −3 | −0.95 |
